This is an account of results in PubChem BioAssay AID687043 (Milwaukee Institute for Drug Discovery, 2013).

What is called inhibition is the change of the read-out against control, counted positive when it falls.

The entries are a selection whose mix differs from that of the whole data set. Some of these compounds have results that are not shown, active ones among them. The source made the active and inactive calls.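 The calls were made as follows: active = inhibition above the average over every tested compound plus 3 SD (cut at about 40% in these data); inactive = the rest.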

The test system of this assay is Hepatitis C virus NS3 helicase. Put plainly: compounds blocking NS3h DNA binding – biochemical, fluorescence polarization, ChemBridge library, primary screen (AID 687043). As to conditions: NS3h Cy5-dT15 DNA binding, at 100 µM, active compounds read high. (Fluorescence polarisation rises when a labelled molecule tumbles more slowly, as on binding a larger partner.)
Consider `COc1ccc(OC)c(C=C(C#N)C#N)c1`, for which the inhibition was inactive: 11.4%.
